Source: PubChem BioAssay AID784 (The Scripps Research Institute Molecular Screening Center, 2007)
Only a part is listed here, and it is no random draw. Some results for these compounds are left out of this collection, so the calls shown say nothing about other tests. The source made the active and inactive calls. Cut-off read from the data, not from the text of the source: active = activation above about 65%; inactive = the rest.

The chains behind the UniProt entries cited, without tags or fusion partners.
UniProt P04062, whole entry L483P: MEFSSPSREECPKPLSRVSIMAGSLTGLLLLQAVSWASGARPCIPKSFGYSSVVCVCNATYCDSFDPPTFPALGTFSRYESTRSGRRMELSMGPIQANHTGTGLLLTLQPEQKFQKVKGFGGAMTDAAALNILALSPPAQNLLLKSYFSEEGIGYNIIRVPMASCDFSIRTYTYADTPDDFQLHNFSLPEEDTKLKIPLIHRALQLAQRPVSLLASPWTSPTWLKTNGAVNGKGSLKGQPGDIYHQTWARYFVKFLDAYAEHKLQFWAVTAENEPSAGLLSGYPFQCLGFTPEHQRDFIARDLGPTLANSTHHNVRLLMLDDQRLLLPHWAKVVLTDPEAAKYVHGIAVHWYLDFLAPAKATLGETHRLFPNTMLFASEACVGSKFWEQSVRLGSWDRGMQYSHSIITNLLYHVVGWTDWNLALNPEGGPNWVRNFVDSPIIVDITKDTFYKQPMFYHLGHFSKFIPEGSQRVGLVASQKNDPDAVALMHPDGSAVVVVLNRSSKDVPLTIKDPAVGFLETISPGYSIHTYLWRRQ

What follows are compounds tested against Lysosomal acid glucosylceramidase (Homo sapiens) (UniProt P04062) (assay: GBA activity enhancers in patient fibroblasts, primary screen, cell-based (AID 784;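 note: 0% = vehicle wells and 100% = positive control wells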)). Settings: L444P Gaucher fibroblasts, 4-MU-glucoside fluorescence, 3 days; at 10 µM; active compounds read high.

SMILES | activation
O=C(OC1CN2CCC1CC2)C(CO)(c1ccccc1)c1ccccc1 (stereo unspecified) | inactive: -5.03%
